Tested on: D type HBV in primary human hepatocytes (HBsAg)
Assay: microbe, parasite or virus in culture
Assay type: cell-based
Settings: Hepatitis B virus, Hepatocyte, read-out: AVERAGE % INHIBITION HBsAg, compound 23 2000 nM alone (TAF study)
Description: The mouse liver perfusion was applied to isolate PHHs. The isolated hepatocytes were further purified by Percoll. The cells were resuspended with culture media and seeded into the 96-well plates (6×10^4 cell/well) or 48-well plates (1.2×10^5 cell/well). The PHHs were infected with a D type HBV one day post seeding (day 1).
On day 2, the test compounds were diluted and added into the cell culture plates. The culture media containing the compounds were refreshed every other day. The cell culture supernatants were collected on day 8 for the HBV DNA and antigen determinations.
The compounds were tested at 7 concentrations, 3-fold dilution, in triplicate.
Two compounds were tested at 5×5 matrix, in triplicate plates.
HBsAg/HBeAg in the culture supernatants harvested on days 8 were measured by the HBsAg/HBeAg ELISA kit (Autobio) according to the manual. The samples were diluted with PBS to get the signal in the range of the standard curve. The inhibition rates were calculated with the formula below. The combination effect was analyzed by the MacSynergy software.
% Inh. HBsAg=[1-HBsAg quantity of sample/HBV quantity of DMSO control]×100.

With `CNC(=O)N[C@H]1CCOc2c(C(=O)Nc3ccc(F)c(F)c3)ccc(F)c21` [Compound 23] the inhibition at 2 µM was 22.8%.

Source: US20220265817A1, “THERAPEUTIC COMPOSITIONS AND METHODS FOR TREATING HEPATITIS B” (priority 2017, published 2022)
